Reference: PubChem BioAssay AID652025 (National Center for Advancing Translational Sciences (NCATS), 2013)
The list shows a part of the results, in another mix than the full data. Activity calls are given as the source filed them. No stated cut-off is given here; in the data, active means activation above about 50%; inconclusive means mostly about 30% to 49%; inactive means weaker than that.

Assay: qHTS of IL-2 Activators; further: 0% is about no effect
Settings: IL-2 activation reporter assay, cell-based qHTS; stronger effect = higher value; in transgenic mouse T cells; stimulated with anti-CD3/CD4/CD28 beads
Excerpt: The adaptive immune response against any infectious agent begins with the activation of an antigen specific T cell. This relatively rare and inert ("naive") T cell undergoes a massive proliferative expansion and differentiation process to generate sufficient number of potent pathogen-specific effector T cells. The effector T cells fight the infection by making cytokines and helping other cells to become fully armed as well. If any naive T cell has antigen receptors (TCRs) that can be activated by self peptides, then a variety of regulatory mechanisms kick in to prevent this cell from performing to its full potential. These processes collectively constitute the phenomenon of immunological tolerance and their failure leads to autoimmunity. One arm of tolerance involves generation of biochemical negative feedback downstream of the TCR (tuning). This is especially relevant to self antigens present in the body over long periods of time (chronic), which form the bulk of our proteome. The negative feedback serves to tune the TCR signaling, such that the ambient antigenic stimulation is nullified intracellularly. Unfortunately, this critical machinery serves as a target for chronic viral, bacterial and parasitic infections (as well as tumors), which can evade a robust immune response, simply by allowing T cells to tune down their signaling to pathogen or malignancy derived antigens. As such, disrupting the tuning in such cases would allow the tolerant T cell to function again and deliver a robust effector response.
If a therapeutic can restore responsiveness to the tuned down T cell, even for a short time, they could combat the pathogen without any additional immunization. To that end, we have developed a sensitive HTS T cell based assay based on IL-2. This assay will be screened against the Molecular Libraries Small Molecule Repository (MLSMR) to find small molecules that could elicit this response.
NIH Chemical Genomics Center [NCGC]
NIH Molecular Libraries Probe Centers Network [MLPCN]
Assay Submitter (PI): Ron Schwartz, NIAID
4 microL (750 cells/well) of unstimulated transgenic mouse T cells (columns 1-3,5-48) are dispensed into Aurora LoBase, black clear-bottom 1536-well assay plates; column 4 receives an identical concentration of transgenic memory T cells as a non-tolerant control. Compounds are then transferred via Kalypsys pin tool equipped with 1536-pin array (10 nL slotted pins, V&P Scientific, San Diego, CA). Following addition of compound and a 60 minute incubation, 1 microL of bead stimulation solution ((0.04 micron Fluospheres (Life technologies, CA) coated with 10ug/ml each anti-CD3 and anti-CD4 (clones 2C11 and GK1.5, BD Biosciences, CA) and mixed with 1ug/ml anti-CD28 (clone PV-1, BD biosciences, CA)). columns 2-48) is added to stimulate the IL-2 response pathway; media is instead added to column 1 as an unstimulated control, while PMA/ionomycin (Sigma Aldrich, MO) is added to column 3 as a control for IL-2 tolerance bypass. The plates are then incubated at 37 degrees C for 18 hours. EGFP and DsRed signal are then detected using an Acumen eX3 Explorer fluorescent plate cytometer. All cells are dispensed in cell media containing EHAA (Quality Biologicals, MD), RPMI (Quality Biologicals, MD), Glutamine (Life Technologies, CA), Penicillin/Streptomycin (Quality Biologicals, MD), 2-ME (Sigma Aldrich, MO) and 10% FBS (Gemini Bioproducts, CA) .

SMILES | activation
Cc1cc(N(CCCl)CCCl)ccc1C=O | inactive: -4.05%
CCCN1CCC(Nc2cc(OC)cc(OC)c2)CC1 | inactive: -0.161%
O=c1[nH]c2ccccc2n1C1CCN(C(c2ccccc2)c2nnnn2C2CCCC2)CC1 (stereo unspecified) | inactive: -0.26%
Cc1ccc(C(=O)NCC2(N3CCCCC3)CCCCC2)o1 | inactive: 0.283%
Fc1ccccc1NC1CCN(Cc2ccccc2)CC1 | inactive: -1.01%
Cc1ccc(Nc2c([N+](=O)[O-])cc([N+](=O)[O-])cc2[N+](=O)[O-])cc1 | inactive: -2.78%
Cc1ccc(NC2(C#N)CCN(Cc3ccccc3)CC2)cc1 | inactive: -0.779%
COc1cccc(C(c2nnnn2C2CCCCC2)N2CCC(n3c(=O)[nH]c4ccccc43)CC2)c1OC (stereo unspecified) | inactive: -0.0043%
CC(=O)N(c1ccccc1)C1CCNCC1 | inactive: -0.86%
CCC(c1nnnn1C1CCCCC1)N1CCC(n2c(=O)[nH]c3ccccc32)CC1 (stereo unspecified) | inactive: 1.09%
COc1cc(OC)cc(C(=O)NCC2(N3CCCCC3)CCCCC2)c1 | inactive: -0.405%
O=c1[nH]c2ccccc2n1C1CCN(C(c2ccnc3ccccc23)c2nnnn2C2CCCCC2)CC1 (stereo unspecified) | inactive: 0.114%
O=C(NCC1(N2CCCCC2)CCCCC1)c1ccco1 | inactive: 0.502%
CN(C)c1ccc(C(=O)NCC2(N3CCCCC3)CCCCC2)cc1 | inactive: -1.89%
Cn1c(=O)[nH]cc(N(CCCl)CCCl)c1=O | inactive: -2.87%
Cc1ccccc1NC1(C#N)CCN(Cc2ccccc2)CC1 | inactive: 0.885%

SMILES | activation
CCN1CCC(Nc2cccc(F)c2)CC1 | inactive: -2.78%
COc1ccc(C(c2nnnn2C2CCCCC2)N2CCC(n3c(=O)[nH]c4ccccc43)CC2)cc1 (stereo unspecified) | inactive: -0.441%
CC(C)(C)n1nnnc1C(c1ccnc2ccccc12)N1CCC(n2c(=O)[nH]c3ccccc32)CC1 (stereo unspecified) | inactive: 1.38%
CC(C)(C)OC(=O)N1CCC(Nc2ccccc2)CC1 | inactive: -1.52%
O=C(O)C1(Nc2ccccc2)CCN(Cc2ccccc2)CC1 | inactive: -0.823%
NN(c1ccccc1)C1CCN(CCc2ccccc2)CC1 | inactive: -0.0724%
O=c1[nH]c2ccccc2n1C1CCN(C(c2cc3ccccc3o2)c2nnnn2C2CCCC2)CC1 (stereo unspecified) | inactive: -0.448%
CCCOc1ccc(C(=O)NCC2(N(C)C)CCCCC2)cc1 | inactive: 7.73%
CCOc1ncccc1C(=O)NCC1(N2CCOCC2)CCCCC1 | inactive: 0.862%
CN1CCC(Nc2ccc(F)c(Cl)c2)CC1 | inactive: -0.127%
CN1CCC(Nc2ccc(Cl)cc2)CC1 | inactive: 0.499%
COc1cccc(C(c2nnnn2C2CCCC2)N2CCC(n3c(=O)[nH]c4ccccc43)CC2)c1OC (stereo unspecified) | inactive: -0.141%
COc1cc(OC)cc(C(=O)NCC2(N3CCOCC3)CCCCC2)c1 | inactive: 1.94%
COc1cccc(C(=O)N(c2cc(C)cc(C)c2)C2CCN(C(=O)OC(C)(C)C)CC2)c1 | inactive: -0.166%
CCC(CO)(C(=O)OC1CN2CCC1CC2)c1ccccc1 (stereo unspecified) | inactive: 0.851%
